We go through 1 molecule from article PMC3504066, “Gefitinib Analogue V1801 Induces Apoptosis of T790M EGFR-Harboring Lung Cancer Cells by Up-Regulation of the BH-3 Only Protein Noxa” (PLoS ONE, 2012).

Assay [1] relates to phosphorylated EGFR (p-EGFR). The assay is described as follows: Western blot of phosphorylated EGFR in NCI-H1975 cells. Conditions: 12 h. In kind it is cell-based. Here is the method: (§1) Cells were suspended in lysis buffer (50 mM Tris-HCl (pH 7.4), 150 mM NaCl, 1% triton X-100, 1% sodium deoxycholate, 0.1% SDS, 1 mM Na3VO4, 1 mM NaF, 1 mM EDTA, 1 mM PMSF, complete protease inhibitor cocktail) and cleared by centrifugation to obtain whole-cell lysates. Equal amounts of samples were separated by SDS-PAGE, transferred to nitrocellulose and immunoblotted with antibody indicated.
Background: Immunoblotting shows a protein as a band on a membrane.

The subject of assay [2] is phosphorylated EGFR (p-EGFR). The assay is described as follows: Western blot of phosphorylated EGFR in HCC827 cells. Type of assay: cell-based. The settings on record: gefitinib-sensitive HCC827 cells, 12 h. Here is the method:
as §1

Consider `COc1cc2ncnc(Nc3ccc(F)c(Cl)c3)c2cc1OCCCN1CCOCC1` [Gefitinib, N-(3-chloro-4-fluoro-phenyl)-7-methoxy-6-(3-morpholin-4-ylpropoxy) quinazolin-4-amine], for which the “down-regulation of phosphorylated EGFR (p-EGFR)” value in assay [1] is “failed to down-regulate”. Also, the “de-phosphorylation of p-EGFR” value in assay [2] was “induced de-phosphorylation”.
